Data from ChEMBL document CHEMBL1132816, “Arylacetamides as peripherally restricted kappa opioid receptor agonists” (Bioorg Med Chem Lett, 2000).

Sequences of proteins named here, by UniProt entry; tags and fusion partners are left off. A change or cut given only in a name is not applied to a line headed by its entry.
UniProt P41145: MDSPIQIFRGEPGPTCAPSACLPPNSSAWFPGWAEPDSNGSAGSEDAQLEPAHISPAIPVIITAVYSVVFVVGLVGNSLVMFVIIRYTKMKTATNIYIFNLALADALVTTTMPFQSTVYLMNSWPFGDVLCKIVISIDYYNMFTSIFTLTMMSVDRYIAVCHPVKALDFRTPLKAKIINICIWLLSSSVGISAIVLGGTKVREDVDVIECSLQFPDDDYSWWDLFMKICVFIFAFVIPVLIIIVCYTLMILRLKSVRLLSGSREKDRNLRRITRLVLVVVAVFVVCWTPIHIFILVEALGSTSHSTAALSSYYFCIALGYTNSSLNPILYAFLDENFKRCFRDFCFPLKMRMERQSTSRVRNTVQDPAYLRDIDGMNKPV
UniProt P35372, whole entry, looked up: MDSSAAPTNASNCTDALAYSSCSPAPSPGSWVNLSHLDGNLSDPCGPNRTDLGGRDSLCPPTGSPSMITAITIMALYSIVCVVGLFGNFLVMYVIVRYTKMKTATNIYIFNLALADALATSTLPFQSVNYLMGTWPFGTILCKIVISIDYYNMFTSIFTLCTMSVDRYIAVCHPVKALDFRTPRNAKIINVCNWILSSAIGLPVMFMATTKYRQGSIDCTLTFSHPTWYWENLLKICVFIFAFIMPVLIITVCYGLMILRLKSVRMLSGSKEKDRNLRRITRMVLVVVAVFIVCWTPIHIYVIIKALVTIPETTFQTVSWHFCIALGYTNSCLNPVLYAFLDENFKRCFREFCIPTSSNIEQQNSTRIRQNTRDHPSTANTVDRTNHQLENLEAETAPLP
UniProt P41143, whole entry, looked up: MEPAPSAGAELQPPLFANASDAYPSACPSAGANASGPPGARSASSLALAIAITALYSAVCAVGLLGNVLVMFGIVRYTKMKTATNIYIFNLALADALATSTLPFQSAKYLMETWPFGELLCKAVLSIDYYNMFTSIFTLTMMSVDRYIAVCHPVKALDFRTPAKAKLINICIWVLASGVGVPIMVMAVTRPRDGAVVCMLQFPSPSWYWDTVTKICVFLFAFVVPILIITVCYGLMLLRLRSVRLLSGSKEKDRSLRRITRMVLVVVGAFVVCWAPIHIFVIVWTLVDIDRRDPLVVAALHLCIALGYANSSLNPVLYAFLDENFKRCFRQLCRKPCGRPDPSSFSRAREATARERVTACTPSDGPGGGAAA

How the values were obtained:
[1] = Peripheral restriction index was determined
[2] = target: Opioid receptors; mu & kappa (Homo sapiens) (UniProt P41145+P35372); assay: Selectivity was evaluated as ratio of Ki of mu receptor by displacement of [3H]diprenorphine to that of kappa receptor
[3] = target: Opioid receptors; delta & kappa (Homo sapiens) (UniProt P41145+P41143); assay: Selectivity was evaluated as ratio of Ki of delta receptor by displacement of [3H]diprenorphine to that of kappa receptor

SMILES	Peripheral restriction index [1]	Selectivity [2]	Selectivity [3]
CN(C(=O)Cc1ccccc1N)[C@H](CN1CCCC1)c1ccccc1	6		
CN(C(=O)Cc1cccc([N+](=O)[O-])c1)[C@H](CN1CCCC1)c1ccccc1		> 1000	> 1000
CN(C(=O)Cc1ccc(Cl)c(Cl)c1[N+](=O)[O-])[C@H](CN1CCCC1)c1ccccc1	4		
CN(C(=O)Cc1ccc(Cl)c(Cl)c1)[C@H](CN1CCCC1)c1ccccc1 [ICI-199,441]	3		
CN(C(=O)Cc1ccccc1[N+](=O)[O-])[C@H](CN1CCCC1)c1ccccc1		> 1000	> 1000
CN(C(=O)Cc1ccc(C(F)(F)F)cc1)[C@H](CN1CCCC1)c1ccccc1	13	> 800	> 1000
CN(C(=O)Cc1cccc(C(F)(F)F)c1)[C@H](CN1CCCC1)c1ccccc1	9		
CN(C(=O)Cc1ccc([N+](=O)[O-])cc1)[C@H](CN1CCCC1)c1ccccc1		52	410
